Sequences of proteins named here, by UniProt entry; tags and fusion partners are left off. Residues count along the entry.
UniProt P31423, 33-912: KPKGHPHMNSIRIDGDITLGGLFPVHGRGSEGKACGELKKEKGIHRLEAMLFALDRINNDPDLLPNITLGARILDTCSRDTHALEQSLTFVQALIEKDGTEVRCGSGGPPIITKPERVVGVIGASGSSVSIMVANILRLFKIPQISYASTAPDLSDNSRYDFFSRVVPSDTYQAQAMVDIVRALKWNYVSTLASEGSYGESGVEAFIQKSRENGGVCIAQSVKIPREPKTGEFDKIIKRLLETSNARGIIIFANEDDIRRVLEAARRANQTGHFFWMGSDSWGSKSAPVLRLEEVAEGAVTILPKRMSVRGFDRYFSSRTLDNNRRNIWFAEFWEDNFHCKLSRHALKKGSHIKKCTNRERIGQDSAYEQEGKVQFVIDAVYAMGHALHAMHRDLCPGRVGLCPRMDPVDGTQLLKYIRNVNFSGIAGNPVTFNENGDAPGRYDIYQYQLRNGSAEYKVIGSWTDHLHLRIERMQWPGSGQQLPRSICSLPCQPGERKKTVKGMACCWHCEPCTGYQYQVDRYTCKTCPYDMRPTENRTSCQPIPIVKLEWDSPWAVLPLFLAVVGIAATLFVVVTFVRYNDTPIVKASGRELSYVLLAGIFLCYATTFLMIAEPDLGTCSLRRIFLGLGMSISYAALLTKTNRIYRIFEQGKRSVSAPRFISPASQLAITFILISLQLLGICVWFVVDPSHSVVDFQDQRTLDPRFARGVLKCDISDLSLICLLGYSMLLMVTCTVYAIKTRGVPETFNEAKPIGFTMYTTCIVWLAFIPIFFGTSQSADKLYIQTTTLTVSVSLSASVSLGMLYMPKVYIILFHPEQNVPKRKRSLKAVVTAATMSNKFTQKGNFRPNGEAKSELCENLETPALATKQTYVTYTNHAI

According to paper PMC4537392 (Neuropharmacology, 2015):

Legend:
[1] = biological target: T1, mGlu4 (Rattus norvegicus, UniProt P31423); assay: Association and dissociation assays of [3H]3; type: binding
[2] = biological target: T1, mGlu4; assay: mGlu4 competitive binding assay against [3H]ML128; details: IC50 (binding inhibition of [3H]3)

| SMILES | Kd [1] | IC50 ([2]; 10 nM [3H]3, with 100 nM of 1 (glutamate)) | IC50 ([2]; 10 nM [3H]3, with 1 mM of 1 (glutamate)) |
| --- | --- | --- | --- |
| COc1cc(NC(=O)c2ccccn2)ccc1Cl [[^3H]3, N-(4-Chloro-3-methoxyphenyl)-2-picolinamide] | 19 nM |  |  |
| COc1cc(NC(=O)c2ccccn2)ccc1Cl [compound 3, N-(4-Chloro-3-methoxyphenyl)-2-picolinamide, reference compound] |  | 11 nM | 10 nM |
